From publication PMC3172709 (Journal of pharmacy & pharmaceutical sciences : a …, 2011)

Key:
P-gp = assay: Western blot analysis of P-gp protein expression in drug-treated LS-180 cells; conditions: 48 h
MDR1 mRNA = conditions: LS-180 cells, 48 h, 50 μM
[1] = following 600 mg dose; ref Facts & Comparisons 4.0, online edition; cited from earlier work

With CO[C@H]1/C=C/O[C@@]2(C)Oc3c(C)c(O)c4c(O)c(c(/C=N/N5CCN(C)CC5)c(O)c4c3C2=O)NC(=O)/C(C)=C\C=C\[C@H](C)[C@H](O)[C@@H](C)[C@@H](O)[C@@H](C)[C@H](OC(C)=O)[C@@H]1C [Rifampicin] the “fold increase in P-gp expression” value (P-gp; 50 μM) was 5.6 fold, the “fold increase in P-gp protein expression” value (P-gp; over entire concentration range 5–100 μM, vs control) was 4–7 fold and the “fold increase in MDR1 mRNA level” value (MDR1 mRNA) was 6.2 fold. For the same compound, the “plasma concentrations, average” value [1] was 21.5 µM.
